This passage reports IC50 results from patent publication US20130280212A1, “INHIBITORS OF CYTOCHROME P450” (GILEAD SCIENCES, INC, priority 2010, published 2013).

Sequences of proteins named here, by UniProt entry; tags and fusion partners are left off. Residues count along the entry.
UniProt P08684, 2-503 limits assumed: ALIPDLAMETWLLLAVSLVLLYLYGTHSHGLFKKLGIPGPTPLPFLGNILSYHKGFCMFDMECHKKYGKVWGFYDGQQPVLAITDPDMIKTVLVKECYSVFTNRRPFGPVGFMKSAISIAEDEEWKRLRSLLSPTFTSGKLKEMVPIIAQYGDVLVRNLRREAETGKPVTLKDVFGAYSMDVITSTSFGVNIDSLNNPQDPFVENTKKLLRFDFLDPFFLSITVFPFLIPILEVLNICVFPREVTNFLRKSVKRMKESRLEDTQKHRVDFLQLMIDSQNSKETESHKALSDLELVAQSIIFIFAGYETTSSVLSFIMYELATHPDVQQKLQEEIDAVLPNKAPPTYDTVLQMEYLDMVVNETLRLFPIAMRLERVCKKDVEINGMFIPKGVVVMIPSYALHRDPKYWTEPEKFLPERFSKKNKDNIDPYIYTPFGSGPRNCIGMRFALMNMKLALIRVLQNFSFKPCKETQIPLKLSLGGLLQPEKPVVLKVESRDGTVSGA

The data set deals with CYP3A4 (Homo sapiens, UniProt P08684). The experiment in a line: CYP3A inhibition assay in pooled human hepatic microsomal fraction (midazolam 1-hydroxylase and testosterone 6β-hydroxylase activities). To be noted: human hepatic microsomes. How it is done:
Pooled (n≧15 donors) human hepatic microsomal fraction was obtained from BD-Gentest (Woburn, Mass.) who also supplied hydroxy-terfenadine, 4′-hydroxydiclofenac and NADPH regenerating system. Ritonavir was prepared from commercial Norvir® oral solution (Abbott Laboratories, Abbott Park, Ill.). Other reagents were from Sigma-Aldrich (St. Louis, Mo.) and included terfenadine, fexofenadine, BRL 15572, diclofenac and mefenamic acid.
Incubations were performed in duplicate in 50 mM potassium phosphate buffer, pH 7.4 with NADPH regenerating system used as described by the manufacturer. […] The final substrate concentrations used were equal to the apparent Km values for the activities determined under the same conditions. […]
The LC-MS system consisted of a Waters Acquity UPLC, with a binary solvent manager and a refrigerated (8° C.) sample organizer and sample manager, interfaced to a Micromass Quattro Premier tandem mass spectrometer operating in electrospray ionization mode. […] Concentrations of metabolites were determined by reference to standard curves generated with authentic analytes under the same conditions as the incubations. […]
For LC-MS analysis the column was a Phenomenex Synergi Max RP 4 μm column (50×2.0 mm) and the injection volume was 5 μL. […] Rates of metabolite formation were determined from standard curves using PAR determined with authentic metabolite standards.

Molecules are shown by their SMILES. Read-outs that look alike come from different tables or passages of the source.

For orientation: IC50 means the concentration that inhibits the measured activity by half. With `CCCCC[C@H]1CC[C@H](C(=O)N[C@H](CC[C@H](Cc2ccccc2)NC(=O)OCc2cncs2)Cc2ccccc2)CC1`, the IC50 is, setting by setting: (read-out: CYP3A4 IC50 (μM) (midazolam), probe activity midazolam 1-hydroxylase) 2 µM; (read-out: CYP3A4 IC50 (μM) (testosterone), probe activity testosterone 6β-hydroxylase, substrate 50 μM) 10 µM.
